# Experiments:
# Sequences of proteins named here, by UniProt entry; tags and fusion partners are left off. Residues count along the entry.
# UniProt Q00960, 27-1482: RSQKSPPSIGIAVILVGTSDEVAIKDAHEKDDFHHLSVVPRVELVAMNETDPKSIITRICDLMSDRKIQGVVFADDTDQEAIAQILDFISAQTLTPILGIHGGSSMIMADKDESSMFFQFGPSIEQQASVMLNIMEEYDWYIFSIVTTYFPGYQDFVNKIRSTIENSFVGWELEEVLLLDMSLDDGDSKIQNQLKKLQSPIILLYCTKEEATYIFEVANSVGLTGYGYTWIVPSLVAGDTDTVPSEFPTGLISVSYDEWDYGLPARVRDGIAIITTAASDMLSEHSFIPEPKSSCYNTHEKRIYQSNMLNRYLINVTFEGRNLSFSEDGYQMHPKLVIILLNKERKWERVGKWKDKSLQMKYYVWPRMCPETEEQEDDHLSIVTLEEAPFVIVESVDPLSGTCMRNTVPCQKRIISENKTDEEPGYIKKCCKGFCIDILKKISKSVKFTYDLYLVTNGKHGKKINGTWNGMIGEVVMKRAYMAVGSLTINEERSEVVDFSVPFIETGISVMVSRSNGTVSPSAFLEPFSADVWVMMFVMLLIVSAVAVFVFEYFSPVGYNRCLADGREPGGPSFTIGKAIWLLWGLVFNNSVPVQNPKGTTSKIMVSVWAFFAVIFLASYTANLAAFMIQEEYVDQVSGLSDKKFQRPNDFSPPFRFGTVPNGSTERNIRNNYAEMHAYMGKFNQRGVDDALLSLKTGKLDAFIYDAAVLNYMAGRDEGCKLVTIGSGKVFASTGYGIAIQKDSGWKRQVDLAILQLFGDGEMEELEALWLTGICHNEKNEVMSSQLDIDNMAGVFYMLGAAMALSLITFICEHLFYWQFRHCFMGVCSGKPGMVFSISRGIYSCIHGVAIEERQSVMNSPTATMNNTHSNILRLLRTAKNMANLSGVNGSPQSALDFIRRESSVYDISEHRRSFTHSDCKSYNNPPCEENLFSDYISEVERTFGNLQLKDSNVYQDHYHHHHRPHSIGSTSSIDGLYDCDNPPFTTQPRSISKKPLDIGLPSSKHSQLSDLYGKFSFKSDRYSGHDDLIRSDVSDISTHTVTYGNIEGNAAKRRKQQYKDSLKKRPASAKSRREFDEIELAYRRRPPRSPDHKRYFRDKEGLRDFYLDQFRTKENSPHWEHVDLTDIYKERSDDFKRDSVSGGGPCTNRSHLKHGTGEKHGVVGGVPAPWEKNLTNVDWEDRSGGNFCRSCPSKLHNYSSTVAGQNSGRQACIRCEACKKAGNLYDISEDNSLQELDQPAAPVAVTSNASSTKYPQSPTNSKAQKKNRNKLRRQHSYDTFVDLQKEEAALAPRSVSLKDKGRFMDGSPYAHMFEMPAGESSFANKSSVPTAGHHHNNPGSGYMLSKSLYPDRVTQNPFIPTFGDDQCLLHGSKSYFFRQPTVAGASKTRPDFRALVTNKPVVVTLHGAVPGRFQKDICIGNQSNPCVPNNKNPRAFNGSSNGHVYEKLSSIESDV
# [1] = biological target: T1, MK-801 binding (intrachannel) site of NMDA receptor (Rattus norvegicus, UniProt P35439); test: Radioligand binding, competition with [3H]MK-801
# T1 construct: we used a membrane preparation of rat cerebral hippocampus; from tissue; host or cells: rat hippocampal membranes
# [2] = biological target: T2, ifenprodil binding site of NMDA receptors containing NR2B subunits (Rattus norvegicus, UniProt P35439+Q00960); test: Radioligand binding, competition with [3H]ifenprodil
# T2 construct: we used a membrane preparation of rat cerebral hippocampus; from tissue; host or cells: rat hippocampal membranes
structure (smiles),measurement,setting,value
"CC12CC3CC(C)(C1)CC(N)(C3)C2.Cl [Memantine, 1-amino-3,5-dimethyladamantane hydrochloride]",IC50,[1],1360 ± 86 nM
same,IC50,[2],> 100000 nM
